Reference: patent US9302989B2 (priority 2010, dated 2016)

Chains of the proteins cited; added tags and fusions are not shown. Lines headed by an entry give the natural chain unless they say otherwise; changes in a name come on top.
UniProt P43490: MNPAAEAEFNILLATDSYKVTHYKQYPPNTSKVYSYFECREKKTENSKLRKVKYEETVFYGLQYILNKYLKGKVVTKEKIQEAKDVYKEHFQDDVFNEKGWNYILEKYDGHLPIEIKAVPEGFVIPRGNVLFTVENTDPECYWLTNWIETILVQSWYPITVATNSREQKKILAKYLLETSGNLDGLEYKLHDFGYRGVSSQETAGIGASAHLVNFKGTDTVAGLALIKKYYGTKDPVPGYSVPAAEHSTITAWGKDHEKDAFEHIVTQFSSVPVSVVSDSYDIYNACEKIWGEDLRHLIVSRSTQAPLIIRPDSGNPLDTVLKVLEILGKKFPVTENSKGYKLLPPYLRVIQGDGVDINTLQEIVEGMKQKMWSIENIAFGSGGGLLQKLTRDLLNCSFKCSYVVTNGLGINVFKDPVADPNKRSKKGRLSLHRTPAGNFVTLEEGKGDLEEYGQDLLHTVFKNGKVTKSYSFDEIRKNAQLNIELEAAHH

Target: NAMPT (Homo sapiens (Human), UniProt P43490)
Conditions: read-out: TR-FRET Binding IC50 (μM) probe 1

| SMILES | IC50 [µM] |
| --- | --- |
| O=C(N[C@H](CO)c1ccccc1)c1ccc(NC(=O)N2Cc3ccccc3C2)cc1 [Example 80, N-(4-{[(1S)-2-hydroxy-1-phenylethyl]carbamoyl}phenyl)-1,3-dihydro-2H-isoindole-2-carboxamide] | 0.0299 |
| CC(=O)N1CCC(C(=O)N2CCN(c3ccc(NC(=O)N4Cc5ccccc5C4)cc3)CC2)CC1 [Example 500, N-(4-{4-[(1-acetylpiperidin-4-yl)carbonyl]piperazin-1-yl}phenyl)-1,3-dihydro-2H-isoindole-2-carboxamide] | 0.182 |
| O=C(NC[C@@H]1CCCO1)c1ccc(NC(=O)N2Cc3ccc(F)cc3C2)cc1 [Example 435, 5-fluoro-N-[4-({[(2S)-tetrahydrofuran-2-ylmethyl]amino}carbonyl)phenyl]-1,3-dihydro-2H-isoindole-2-carboxamide] | 0.00589 |
| O=C(Nc1ccc(C(=O)N2CCN(c3ccc(F)cc3)CC2)cc1)N1Cc2ccccc2C1 [Example 44, N-(4-{[4-(4-fluorophenyl)piperazin-1-yl]carbonyl}phenyl)-1,3-dihydro-2H-isoindole-2-carboxamide] | 0.018 |
| CCCn1cc(-c2ccc(CNC(=O)N3Cc4ccccc4C3)cc2)cn1 [Example 366, N-[4-(1-propyl-1H-pyrazol-4-yl)benzyl]-1,3-dihydro-2H-isoindole-2-carboxamide] | 3.34 |
| CC1CCCN(C(=O)c2ccc(NC(=O)N3Cc4ccccc4C3)cc2)C1 (stereo not shown) [Example 249, N-{4-[(3-methylpiperidin-1-yl)carbonyl]phenyl}-1,3-dihydro-2H-isoindole-2-carboxamide] | 0.778 |
| CC(C)CCn1cc(-c2ccc(NC(=O)N3Cc4ccccc4C3)cn2)cn1 [Example 326, N-{6-[1-(3-methylbutyl)-1H-pyrazol-4-yl]pyridin-3-yl}-1,3-dihydro-2H-isoindole-2-carboxamide] | 0.0743 |
| CCCNC(=O)c1ccc(NC(=O)N2Cc3ccc(C(N)=O)cc3C2)cc1 [Example 132, N^2-[4-(propylcarbamoyl)phenyl]-1,3-dihydro-2H-isoindole-2,5-dicarboxamide] | 0.0581 |
| CC(C)CCc1nc(-c2ccc(NC(=O)N3Cc4ccccc4C3)cc2)no1 [Example 408, N-{4-[5-(3-methylbutyl)-1,2,4-oxadiazol-3-yl]phenyl}-1,3-dihydro-2H-isoindole-2-carboxamide] | 0.372 |
| O=C(NCCc1cccc(Cl)c1)c1ccc(NC(=O)N2Cc3ccccc3C2)cc1 [Example 149, N-(4-{[2-(3-chlorophenyl)ethyl]carbamoyl}phenyl)-1,3-dihydro-2H-isoindole-2-carboxamide] | 0.0717 |
| Nc1cccc(CNC(=O)c2ccc(NC(=O)N3Cc4ccccc4C3)cc2)c1 [Example 104, N-{4-[(3-aminobenzyl)carbamoyl]phenyl}-1,3-dihydro-2H-isoindole-2-carboxamide] | 0.0395 |
| Cc1n[nH]c2ccc(NC(=O)c3ccc(NC(=O)N4Cc5ccccc5C4)cc3)cc12 [Example 87, N-{4-[(3-methyl-1H-indazol-5-yl)carbamoyl]phenyl}-1,3-dihydro-2H-isoindole-2-carboxamide] | 0.0326 |
| O=C(NCc1ccc(C(F)(F)F)cc1)c1ccc(NC(=O)N2Cc3ccccc3C2)cc1 [Example 98, N-(4-{[4-(trifluoromethyl)benzyl]carbamoyl}phenyl)-1,3-dihydro-2H-isoindole-2-carboxamide] | 0.0381 |
| CCCC(C)NC(=O)c1ccc(NC(=O)N2Cc3ccccc3C2)cc1 (stereo not shown) [Example 230, N-[4-(pentan-2-ylcarbamoyl)phenyl]-1,3-dihydro-2H-isoindole-2-carboxamide] | 0.369 |
| O=C(NCCCCC1CCN(C(=O)c2ccccc2)CC1)N1Cc2ccccc2C1 [Example 349, N-[4-(1-benzoylpiperidin-4-yl)butyl]-1,3-dihydro-2H-isoindole-2-carboxamide] | 0.0022 |
| CCCNC(=O)c1ccc(NC(=O)N2Cc3ccc(C(O)CO)cc3C2)cc1 (stereo not shown) [Example 450, 5-(1,2-dihydroxyethyl)-N-{4-[(propylamino)carbonyl]phenyl}-1,3-dihydro-2H-isoindole-2-carboxamide] | 1.03 |
